# AlphaSeq binding of Ab-14 heavy chain variants to a spike HR2 peptide

Values reported by Li et al. 2023, doi:10.1038/s41467-023-39022-2 (FLAb copy).

Binding partner: SARS-CoV-2 spike HR2 peptide, sequence PDVDLGDISGINAS.

Ab-14 is the parent antibody, in scFv form: VH, then the linker GGGGSGGGGSGGGGS, then VL. The light chain is unchanged in all variants.
VH: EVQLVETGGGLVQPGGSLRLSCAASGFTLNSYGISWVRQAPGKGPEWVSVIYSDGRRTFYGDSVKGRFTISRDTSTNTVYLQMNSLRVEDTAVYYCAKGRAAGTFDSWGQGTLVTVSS
VL: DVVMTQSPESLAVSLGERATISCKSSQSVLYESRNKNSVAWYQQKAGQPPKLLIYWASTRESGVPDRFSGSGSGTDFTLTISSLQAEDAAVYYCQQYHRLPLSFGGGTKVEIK

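The parent was found by panning a naive human phage display library on the peptide. These sequences belong to a second round, designed from the earlier measurements on random variants of the parent. Their group label is 14H_En_HC (En: ensemble of fine-tuned language models; HC: hill climbing; a sequence that several methods proposed may carry one label only). In AlphaSeq, yeast of one mating type display the scFv and yeast of the other type display the target. Pairs that bind mate more often; barcode pairs of the diploids are counted by sequencing. Scores were corrected for input abundance and mapped to Kd with protein pairs of known affinity run in the same pool. There are six technical replicates.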

Each variant is given by its three heavy chain CDRs, as the data file delimits them; those of the parent are GFTLNSYGIS, VIYSDGRRTFYGDSVK, GRAAGTFDS. Values are log10 of the apparent Kd in nM; lower means stronger binding. A mean of the replicates is given; it leaves out those without a signal. An entry "n.d." has no value in the source: the pair was not observed among the diploids in that replicate. This suggests poor binding but is not conclusive. A sequence measured in both rounds can read differently, since the two assays cover different ranges.

| # | CDR-H1 | CDR-H2 | CDR-H3 | log10 Kd (nM) by replicate | mean log10 Kd (nM) | empty controls |
|---|---|---|---|---|---|---|
| 1 | GFDLNEYGIS | VIYADGRRSFYADSVK | GQLAGTFDN | -0.52 / -0.67 / -0.65 / -0.70 / -0.94 / -0.70 | -0.70 | 3/18 (3.29) |
| 2 | GFDLNEYGIS | VIYADGRRTAYADSVK | GNVAGTFIQ | -0.43 / -0.60 / -0.70 / -0.74 / -0.71 / -0.38 | -0.59 | 0/18 |
| 3 | GFNLDEYGIS | VIYADGRRTFYADSVK | GEHAGTFDM | 0.20 / 0.08 / -0.19 / -0.23 / -0.27 / 0.64 | 0.04 | 1/18 (1.99) |
| 4 | GFNLDEYGIS | VIYADGKRTFYADSVK | GEVAGTFDT | n.d. / n.d. / n.d. / n.d. / n.d. / n.d. | n.d. | 0/18 |
| 5 | GFNLDEYGIS | VIYADGRRTAYADSVK | GEVAGTFDT | 0.52 / -0.24 / -0.46 / -0.64 / 0.09 / 0.54 | -0.03 | 0/18 |
| 6 | GFDLNEYGIS | VIYADGRRTFYTDSVK | GQLAGTFDQ | -0.35 / -0.63 / -0.63 / -0.74 / -0.69 / -0.57 | -0.60 | 0/18 |
| 7 | GFNLNEYGIS | VIYADGRRTFYADSVK | GGAAGTFDV | -0.30 / -0.23 / -0.58 / -0.72 / -0.83 / -0.93 | -0.60 | 0/18 |
| 8 | GFDLNEYGIS | VIYADGRRTAYKDSVK | GTDAGTFDQ | 0.52 / 0.39 / 0.44 / 0.39 / 0.28 / 0.88 | 0.48 | 1/18 (3.61) |
| 9 | GFDLDEYGIS | VIYADGRRTFYADSVK | GEAAGTFTQ | 0.19 / -0.17 / -0.08 / -0.08 / -0.08 / 0.08 | -0.02 | 0/18 |
| 10 | GFDLNEYGIS | VIYADGRRTYYIDSVK | GEAAGTFDL | -0.68 / -1.04 / -0.82 / -1.04 / -0.81 / -0.33 | -0.79 | 0/18 |
| 11 | GFDLNEYGIS | VIYADGRRTFYADSVK | GQLAGTFSQ | -0.78 / -1.46 / -1.23 / -1.59 / -1.30 / -1.15 | -1.25 | 0/18 |
| 12 | GFDLNEYGIS | VIYADGRRTFYTDSVK | GEHAGTFDV | -0.21 / -0.54 / -0.65 / -0.37 / -0.57 / -0.42 | -0.46 | 0/18 |
| 13 | GFDLNEYGIS | VIYADGRRTFYTDSVK | GANAGTFDA | -0.36 / -0.80 / -0.33 / -0.96 / -0.81 / -0.37 | -0.60 | 0/18 |
| 14 | GFDLNEYGIS | VIYADGMRTFYSDKVK | GNVAGTFDI | -0.29 / -0.32 / -0.11 / -0.75 / 0.42 / -0.12 | -0.19 | 0/18 |
| 15 | GFDLNEYGIS | VIYADGRRTFYADSVK | GGAAGTFDV | 0.25 / -0.23 / -0.38 / -0.80 / -0.15 / -0.11 | -0.24 | 0/18 |
| 16 | GFDLDEYGIS | VIYADGMRTFYSDSVK | GEAAGTFDA | -0.06 / -0.27 / -0.81 / -0.55 / -0.64 / -0.78 | -0.52 | 1/18 (0.96) |
| 17 | GFDLNEYGIS | VIYADGMRTFYADSVK | GNAAGTFDV | 1.14 / n.d. / 0.69 / 1.38 / 0.67 / 2.01 | 1.18 | 1/18 (1.49) |
| 18 | GFDLNEYGIS | VIYADGRRTFYSDSVK | GENGGTFDM | -0.07 / 0.08 / -0.28 / -0.11 / -0.07 / -0.23 | -0.11 | 0/18 |
| 19 | GFDLNEYGIS | VIYADGRRTAYSDSVK | GEAAGTFDE | 1.21 / -0.40 / -0.94 / -0.55 / -0.39 / -0.28 | -0.22 | 1/18 (0.45) |
| 20 | GFDLNEYGIS | VIYADGRRTAYADSVK | GQVAGTFNM | -0.42 / -0.57 / -0.49 / -0.83 / -0.61 / -0.45 | -0.56 | 1/18 (2.08) |
| 21 | GFDLNEYGIS | VIYADGVRTFYVDSVK | GEVAGTFDS | -0.55 / -0.59 / -0.57 / -0.82 / -0.44 / -0.55 | -0.59 | 1/18 (1.42) |
| 22 | GFDLNEYGIS | VIYADGRRTAYVDSVK | GVNAGTFDV | -0.19 / -0.11 / -0.47 / -0.77 / -0.62 / -0.38 | -0.42 | 0/18 |
| 23 | GFDLNEYGIS | VIYADGRRTFYADSVK | GQTAGTFSV | 0.00 / -0.25 / -0.25 / -0.52 / -0.55 / -0.05 | -0.27 | 0/18 |
| 24 | GFNLNEYGIS | VIYADGMRTFYSNSVK | GEAAGTFDV | -0.43 / -0.53 / -0.27 / -0.63 / -0.46 / -0.39 | -0.45 | 1/18 (3.71) |
| 25 | GFDLNEYGIS | VIYADGVRTFYADSVK | GHVAGTFVS | -0.11 / -0.03 / -0.54 / -0.58 / -0.03 / -0.04 | -0.22 | 1/18 (2.09) |
| 26 | GFDLNEYGIS | VIYADGRRTAYIDSVK | GEAAGTFDT | -0.58 / -0.80 / -0.87 / -1.26 / -1.04 / -0.41 | -0.83 | 0/18 |
| 27 | GFDLNEYGIS | VIYADGRRTFYVDSVK | GTNAGTFDV | -0.28 / -0.61 / -0.78 / -0.73 / -0.21 / -0.43 | -0.51 | 0/18 |
| 28 | GFDLNEYGIS | VIYADGRRKFYADKVK | GENAGTFNV | 0.67 / -0.47 / -0.37 / -0.24 / 0.04 / 0.25 | -0.02 | 0/18 |
| 29 | GFDLEEYGIS | VIYADGRRTFYADSVK | GEAAGTFDS | -0.21 / -0.47 / -0.98 / -0.56 / -0.40 / 0.22 | -0.40 | 0/18 |
| 30 | GFDLNEYGIS | VIYADGRRTFYANSVK | GEAAGTFDS | -0.18 / -0.55 / -0.53 / -0.75 / -0.21 / -0.95 | -0.53 | 0/18 |
| 31 | GFDLDEYGIS | VIYADGRRTFYSDSVK | GQAAGTFDQ | 0.45 / 0.34 / 0.40 / 0.25 / 0.17 / 0.45 | 0.34 | 2/18 (3.11) |
| 32 | GFDLNEYGIS | VIYADGRRTAYSDSVK | GTVAGTFDS | -0.66 / -0.70 / -0.62 / -1.02 / -0.70 / -0.37 | -0.68 | 0/18 |
| 33 | GFDLESYGIS | VIYADGRRTFYADSVK | GENAGTFDI | 0.15 / n.d. / n.d. / 0.11 / n.d. / 1.11 | 0.45 | 0/18 |
| 34 | GFDLNEYGIS | VIYADGRRTFYTDSVK | GANAGTFDM | 0.30 / -0.26 / -0.32 / 0.00 / -0.80 / 0.51 | -0.10 | 0/18 |
| 35 | GFTLDEYGIS | VIYADGRRTFYADSVK | GNVAGTFDI | -0.37 / -0.18 / -0.37 / -0.54 / -0.41 / -0.36 | -0.37 | 0/18 |
| 36 | GFDLEDYGIS | VIYADGRRTFYADSVK | GNVAGTFIQ | -0.42 / -0.04 / -0.04 / -0.52 / -0.23 / -0.23 | -0.25 | 1/18 (1.19) |

For reference, 4 entries of the list once more:

| CDR-H1 | CDR-H2 | CDR-H3 | log10 Kd (nM) by replicate | mean log10 Kd (nM) | empty controls |
|---|---|---|---|---|---|
| GFDLNEYGIS | VIYADGMRTFYSDKVK | GNVAGTFDI | -0.29 / -0.32 / -0.11 / -0.75 / 0.42 / -0.12 | -0.19 | 0/18 |
| GFDLNEYGIS | VIYADGVRTFYVDSVK | GEVAGTFDS | -0.55 / -0.59 / -0.57 / -0.82 / -0.44 / -0.55 | -0.59 | 1/18 (1.42) |
| GFNLNEYGIS | VIYADGRRTFYADSVK | GGAAGTFDV | -0.30 / -0.23 / -0.58 / -0.72 / -0.83 / -0.93 | -0.60 | 0/18 |
| GFDLNEYGIS | VIYADGRRTAYIDSVK | GEAAGTFDT | -0.58 / -0.80 / -0.87 / -1.26 / -1.04 / -0.41 | -0.83 | 0/18 |

Three control strains display no target. For all heavy chain designs, 1% of the pairings with them gave a signal, with a median of 2.08 and one signal in twenty below 0.84, so weak values seen in few replicates may be background. For each scFv, signals with the empty controls are counted beside the result, with their mean in brackets. The authors' rule: three or more of the six replicates give a measured affinity, fewer mean a poor binder.